## Apparent affinities of Ab-14 variants for a coronavirus HR2 peptide

Target: peptide PDVDLGDISGINAS, taken from heptad repeat 2 (HR2) of SARS-CoV-2 spike.

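The library (AAYL49) carries one to three amino acid substitutions per variant, with no insertions or deletions. Affinity was read by AlphaSeq, a pooled yeast mating assay with surface-displayed partners. After mating in shaken culture at 30 °C for 16 h, diploids were selected and their barcode pairs sequenced. Read counts were normalised to the haploid input and turned into Kd by a linear fit to BCL2-family pairs of known affinity, for each replicate. The assay was run in three technical replicates.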

Parent scFv Ab-14: VH joined to VL by three GGGGS repeats. Changes lie in the heavy chain CDRs alone.
VH: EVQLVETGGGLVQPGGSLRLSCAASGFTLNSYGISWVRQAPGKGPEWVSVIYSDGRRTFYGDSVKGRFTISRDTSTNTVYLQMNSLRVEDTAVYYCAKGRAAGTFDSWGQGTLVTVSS
VL: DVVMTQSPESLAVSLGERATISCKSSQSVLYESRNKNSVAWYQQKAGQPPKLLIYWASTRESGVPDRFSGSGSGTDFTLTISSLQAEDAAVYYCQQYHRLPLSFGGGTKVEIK

Positions count from residue 1 of the parent VH; G55F puts F in place of G.
Scale: log10 of Kd in nM, estimated from mating counts; low values are strong binders.
Averages over replicates are reported, and they cover detected replicates only.
Where no diploid with the target was found in any replicate, the entry reads "no signal": below detection, most likely a poor binder, though not proof of it.
Empty control strains, which show no peptide, gave a signal in 15% of pairings with library AAYL49; the median was 4.06 and 95% of these signals were weaker than 2.83. No background was subtracted.
Parent in this assay: reference entry 0.65, copy in this library 4.11 (one replicate of three).

changes | mean, log10 nM | detected
G55F/R100G/T104V | no signal | 0 of 3
R57I/G61N/V64D | 2.94 | 1 of 3
F27D/S31H/S35P | 4.40 | 2 of 3
S31E/S35Y/D54Q | 5.26 | 2 of 3
S35Y/D62H/D106Q | no signal | 0 of 3
N30R/S107D | 3.52 | 3 of 3
T28H/S107G | 3.01 | 3 of 3
Y52Q/R57Y/Y60N | 4.97 | 1 of 3
D54A/T58R/G103E | no signal | 0 of 3
I34S/T58L/D106Q | 1.69 | 3 of 3
V50G/T58A/F59S | 3.22 | 1 of 3
K65D/R100Y/G103N | 4.13 | 2 of 3
I51E/T58P/V64I | 4.45 | 1 of 3
L29A/T58H/Y60W | no signal | 0 of 3
L29F/V50G | 3.51 | 1 of 3
S35G/V64M | 3.75 | 2 of 3
G33I/D106F/S107T | no signal | 0 of 3
L29R/R57Q/D62T | 4.89 | 3 of 3
G55A/G61Q/S63Y | 3.31 | 2 of 3
I51H/V64R/K65Q | 4.02 | 1 of 3
L29V/V50F/A102R | no signal | 0 of 3
S31D/R57Q/A101Q | 1.36 | 3 of 3
G33I/G55N/A102S | 4.65 | 3 of 3
G33R/D54L/V64K | no signal | 0 of 3
S35T/Y52M/F105E | 2.54 | 1 of 3
R56S/D62S/A102S | 3.22 | 3 of 3
V50G/G61L/D62K | 2.50 | 1 of 3
T58A/F59S | 1.62 | 3 of 3

Second part, the sequence after the result:

mean, log10 nM | detected | changes
no signal | 0 of 3 | S31N/G55K/G99P
4.12 | 1 of 3 | Y32C/I51Q/A102W
2.65 | 1 of 3 | D54V/F59N/K65N
3.91 | 1 of 3 | F27L/Y32W/T58K
no signal | 0 of 3 | G33S/S53Q/T104L
no signal | 0 of 3 | G33K/I34K/R57L
no signal | 0 of 3 | G33C/R100L/D106R
no signal | 0 of 3 | N30S/S35Q/R100I
2.98 | 1 of 3 | G26K/F27R/S53H
no signal | 0 of 3 | I34L/F59K/F105V
4.67 | 1 of 3 | V64Q/G103F/S107K
no signal | 0 of 3 | T58V/Y60N/D62Y
no signal | 0 of 3 | V50C/Y52W/Y60S
2.99 | 1 of 3 | F27R/N30A/A102Q
3.58 | 2 of 3 | F27K/L29S/Y52R
no signal | 0 of 3 | L29W/Y32P/G55Q
6.03 | 1 of 3 | V50M/I51C/G103T
no signal | 0 of 3 | F27A/F59M/Y60Q
2.42 | 1 of 3 | F27I/S63T/F105G
no signal | 0 of 3 | G33L/G55A/S63E
3.86 | 3 of 3 | N30P/R56H/V64F
2.60 | 1 of 3 | F27L/I34H/D54C
no signal | 0 of 3 | S53Y/K65R/A102Q
4.15 | 1 of 3 | L29V/G55V/F59C
no signal | 0 of 3 | N30W/S31W/G33T
4.35 | 2 of 3 | D54Q/S63R/S107D
2.80 | 3 of 3 | N30V/R56M/A102G
3.53 | 1 of 3 | Y32M/F59I/S107A

Extract of 5 entries:

{"changes": "G55F/R100G/T104V", "mean, log10 nM": "no signal", "detected": "0 of 3"}
{"changes": "N30W/S31W/G33T", "mean, log10 nM": "no signal", "detected": "0 of 3"}
{"changes": "D54Q/S63R/S107D", "mean, log10 nM": "4.35", "detected": "2 of 3"}
{"changes": "S31D/R57Q/A101Q", "mean, log10 nM": "1.36", "detected": "3 of 3"}
{"changes": "G33L/G55A/S63E", "mean, log10 nM": "no signal", "detected": "0 of 3"}

Reference: Engelhart et al. 2022, doi:10.1038/s41597-022-01779-4. File: FLAb, binding data.